# In PubChem BioAssay AID429 (Emory University Molecular Libraries Screening Center, 2006):
# This is a selection; strong and weak results do not stand in their true shares. The source made the active and inactive calls.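 How the source made its calls: active means inhibition above 50%; inactive means the rest.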
# Target: Heat shock protein HSP 90-alpha (Homo sapiens) (UniProt P07900)
# Experiment: tumor Hsp90 inhibitors, primary screen, cell lysate, fluorescence polarization, NCI-N417 lysate (AID 429);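 further: 0% = tracer plus lysate wells and 100% = tracer alone without lysate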
# Details: NCI-N417 lysate Hsp90, Cy3B-geldanamycin FP displacement; at 30 µM; active compounds read high
row,SMILES,inhibition
1,CN(C)CCOC(=O)C(O)(c1ccccc1)C1CCCCC1 (stereo not drawn),inactive: -4.6%
2,Cc1ccccc1NP(C)(=O)Nc1ccccc1C,inactive: -2.41%
3,CP(=O)(Nc1ccc2c(c1)OCCO2)Oc1ccccc1 (stereo not drawn),inactive: 4.05%
4,CCOP(C)(=S)SCC(=O)NC(C)(CC)C(=O)O (stereo not drawn),inactive: 3.02%
5,CP(=O)(Nc1ccccc1F)Oc1ccccc1 (stereo not drawn),inactive: -3.72%
6,Cc1nc2ccc3ccccc3c2o1.O=[N+]([O-])c1cc([N+](=O)[O-])c(O)c([N+](=O)[O-])c1,inactive: 10.6%
7,COc1ccccc1OP(C)(=O)Nc1ccc(C)c(C)c1 (stereo not drawn),inactive: -0.8%
8,CP(=O)(Nc1ccccn1)Oc1ccccc1 (stereo not drawn),inactive: 0.8%
9,CP(=O)(Oc1ccccc1)N1CCOC1=O (stereo not drawn),inactive: -7.71%
10,COc1ccccc1OP(C)(=O)Nc1c(C)n(C)n(-c2ccccc2)c1=O (stereo not drawn),inactive: 3.44%
11,N#[O+].[C-]#N.[C-]#N.[C-]#N.[C-]#N.[C-]#N.[Fe+2].[Na+].[Na+],active: 96.5%
12,CCN(CC)CC(O)COC(=O)C(O)(c1ccccc1)C1CCCCC1 (stereo not drawn),inactive: -0.44%
13,CP(=S)(Nn1cnnc1)Oc1ccccc1 (stereo not drawn),inactive: -3.98%
14,CCOP(C)(=S)SCC(=O)NC(C)C(=O)O (stereo not drawn),inactive: -0.45%
15,COc1ccccc1OP(C)(=O)Nc1ccc(C)cc1 (stereo not drawn),inactive: 0.4%
16,Cc1ccc(NP(C)(=O)Oc2ccccc2)c(C)c1 (stereo not drawn),inactive: -3.04%
17,Cc1ccc(C)c(NP(C)(=O)Oc2ccccc2)c1 (stereo not drawn),inactive: -1.17%
18,Cc1nc2ccc3ccccc3c2s1.O=[N+]([O-])c1cc([N+](=O)[O-])c(O)c([N+](=O)[O-])c1,inactive: -5.16%
